Reference: patent US20260124309A1, “STAT6 DEGRADERS AND USES THEREOF” (Kymera Therapeutics, Inc., priority 2023, published 2026)
Like-named read-outs stand apart in the source and are kept apart here.

Amino acid sequences for entries named in this document (tags omitted). Residues count along the entry.
UniProt P42226, whole entry: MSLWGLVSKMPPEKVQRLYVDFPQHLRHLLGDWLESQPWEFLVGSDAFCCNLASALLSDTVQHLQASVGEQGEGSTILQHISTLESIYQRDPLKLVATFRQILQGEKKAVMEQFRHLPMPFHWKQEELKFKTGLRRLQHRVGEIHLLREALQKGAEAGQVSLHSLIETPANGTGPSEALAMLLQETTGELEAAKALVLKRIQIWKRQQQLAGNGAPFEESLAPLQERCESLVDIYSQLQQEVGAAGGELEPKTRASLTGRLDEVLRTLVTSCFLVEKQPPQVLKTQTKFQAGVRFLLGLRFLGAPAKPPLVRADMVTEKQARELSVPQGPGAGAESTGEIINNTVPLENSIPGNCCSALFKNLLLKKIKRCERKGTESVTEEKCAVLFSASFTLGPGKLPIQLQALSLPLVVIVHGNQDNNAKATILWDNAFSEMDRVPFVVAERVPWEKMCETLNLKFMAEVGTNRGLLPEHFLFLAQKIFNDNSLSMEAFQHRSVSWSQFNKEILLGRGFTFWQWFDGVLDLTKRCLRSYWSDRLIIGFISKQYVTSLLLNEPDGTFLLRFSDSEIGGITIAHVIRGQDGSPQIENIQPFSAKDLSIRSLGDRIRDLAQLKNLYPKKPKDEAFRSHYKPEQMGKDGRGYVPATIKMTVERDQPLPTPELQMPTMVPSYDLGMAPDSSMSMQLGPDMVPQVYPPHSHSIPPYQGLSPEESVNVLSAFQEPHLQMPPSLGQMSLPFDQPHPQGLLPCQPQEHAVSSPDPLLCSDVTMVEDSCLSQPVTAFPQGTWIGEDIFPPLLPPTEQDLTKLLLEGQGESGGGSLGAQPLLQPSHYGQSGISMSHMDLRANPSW
UniProt P42226, 123-632 limits assumed: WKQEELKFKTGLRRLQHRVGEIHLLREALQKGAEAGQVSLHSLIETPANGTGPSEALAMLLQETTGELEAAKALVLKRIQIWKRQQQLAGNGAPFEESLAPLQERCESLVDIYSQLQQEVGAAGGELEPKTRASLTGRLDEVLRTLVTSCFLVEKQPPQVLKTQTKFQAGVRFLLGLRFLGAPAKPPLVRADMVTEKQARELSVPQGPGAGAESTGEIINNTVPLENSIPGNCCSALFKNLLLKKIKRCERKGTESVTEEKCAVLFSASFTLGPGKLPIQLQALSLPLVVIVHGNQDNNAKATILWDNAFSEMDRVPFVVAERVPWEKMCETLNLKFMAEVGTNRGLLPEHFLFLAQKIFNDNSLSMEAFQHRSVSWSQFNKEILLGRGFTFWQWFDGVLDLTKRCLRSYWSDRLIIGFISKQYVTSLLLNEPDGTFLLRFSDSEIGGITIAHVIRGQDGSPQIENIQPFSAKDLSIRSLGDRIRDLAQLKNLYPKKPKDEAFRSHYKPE

Experiments:
STAT6 = STAT6 (Homo sapiens, UniProt P42226); assay: STAT6 ubiquitination in PBMC (diGly peptide enrichment, mass spectrometry); details: for STAT6 ubiquitination profile: DiGly enriched peptides from treated cells, compared with endogenous profiles of the literature; for % of Total STAT6 Ub / Intensity: PBMC, 30 nM or 100 nM, 15 minutes
Experimental: This example describes ubiquitination of STAT6 by compounds disclosed herein. Human STAT6 contains the following amino acid sequence:
PBMC Sample Preparation Protocol. Frozen PBMC (AllCells LP, CR, MNC, 100M) were thawed and washed with prewarned complete media (RPMI 1640+10% HIFBS+Pen/Strep prepared with RPMI 1640 (Gibco. #11-875-093, #15140-122 and R&D Systems, #S11550H)). The cells were resuspended in complete media at 1.25 million cells per mL in flasks and incubated overnight in a tissue culture incubator.
The next day, 0.72 μL or 2.4 μL of a 10 mM stock solution of degrader compound (10 mM of I-1, I-167, I-205, I-383, or I-452 in DMSO) was added to a final concentration of 30 nM or 100 nM. At the end of treatment (15 minutes), the cell culture was poured into 50 mL tubes (10 tubes for each 480 mL total volume). The 50 mL tubes were spun down at 4000×g for 2 minutes. The media was decanted, and cells washed with 30 mL PBS. All the cells were combined, and then spun again at 4000×g for 2 minutes. Wash solution was decanted. All tubes were washed once more with 25 mL PBS and combined into one tube. 200 μL the cells (0.8%) was set aside for quality control analysis. The rest of the cells were spun down at 4000×g for 2 minutes. The second wash solution was decanted, and cells spun down again at 4000×g for 1 minute. A 1 mL pipette was used to remove all PBS from the pellet of cells. The pellet of cells was snap frozen for 20 seconds in liquid nitrogen, then stored at −78° C.
Extract protein, reduce, and alkylate: 1800 μL of Urca buffer (8 M Urca, 100 mM Triethylammonium bicarbonate (TEAB). 1 mM ethylenediaminetetraacetic acid (EDTA), 1% Halt™ Protease and Phosphotase Inhibitor (Thermo Fisher Scientific), and 1% Pierce™ Universal Nuclease (Thermo Fisher Scientific) was added to each cell sample. Samples were probe sonicated for 15 seconds (3 times) using 40% amplitude. Protein concentrations of the resultant cell lysates were determined by using Pierce™ Rapid Gold BCA Protein Assay Kit (Product No. A53226).
The lysate mixture containing 20 mg total proteins was reduced at RT for 30 min by adding dithiothreitol (DTT) to the final concentration of 10 mM DTT. 2-iodo acetamid (IAA) was then added to a final concentration of 10 mM to alkylate the proteins. The lysate mixture was placed in the dark for 30 mins, then a further amount of DTT to again reach 10 mM final concentration was added to the lysate mixture to neutralize excess IAA. The lysate mixture was incubated at room temperature for 5 min, then 100 mM TEAB buffer at pH 8.0 was added to dilute the lysate mixture to a urea concentration of less than IM. Trypsin/Lys-C Protease was then added to the reduced and alkylated lysate mixture to provide a protein to enzyme ratio of 1:50. The mixture was digested at 37° C. overnight in an incubator with 500 rpm shaking. The mixture was then acidified to a pH of lower than 3 using trifluoro acetic acid (TFA) and gently mixed to quench the digestion process.
Peptide Desalting: 200 mg Sep-Pak C18 cartridges (Waters) were activated by adding twice 750 μL of methanol (MeOH). Cartridges were equilibrated by twice letting 700 μL 0.1% formic acid (FA) pass through as above. The acidified sample mixture was added to the cartridges and collected after passing through the cartridge. Cartridges were washed three times with 700 μL of 0.1% formic acid. Peptides were eluted using 700 L volumes of 50% acetonitrile (ACN)^+0.1% TFA and dried in a speed-vac concentrator.
DiGly Peptide Enrichment: Peptide samples containing 20 mg/sample were resuspended in 1.8 mL of 1×HS IAP Bind Buffer #1 from PTMScan® HS Ubiquitin/SUMO Remnant Motif (K-GG) Kit (#59322S). To that end, pellets were broken up mechanically by pipetting repeatedly, followed by shaking at room temperature for 5 min or placement in a sonicator bath for 2 min to ensure complete solubilization. The pH of peptide solutions was adjusted to 7.0 with 1M pH 7.0 TRIS base solution. […]

[1] = target: biotinylated truncated STAT6 (123-632)-avi (Homo sapiens, UniProt P42226); assay: STAT6 HTRF binding assay; details: read-out: STAT6 HTRF: Average IC50, 0.15 nM biotinylated truncated STAT6 (123-632)-avi, 20 nM fluorescein-labeled probe

## CN(C)C(=O)c1cc2c(-c3ccc(N4CCN(CCCc5ccc6c(c5)n(C)c(=O)n6C5CCC(=O)NC5=O)CC4)cc3)cc(C3=CCCN(C(=O)CCn4ccnn4)C3)cc2[nH]1 (stereo not shown)
STAT6
  STAT6 ubiquitination profile: distinct from profiles reported in the literature in untreated cancer cell lines
STAT6; STAT6 site K94
  % of Total STAT6 Ub: 1.5 ± 0.2%
STAT6; STAT6 site K94 diGly peptide
  Intensity: 2.31 ± 0.23 E + 06
STAT6; STAT6 site K108
  % of Total STAT6 Ub: 1.2 ± 1.2%
STAT6; STAT6 site K108 diGly peptide
  Intensity: 1.97 ± 1.93 E + 06
STAT6; STAT6 site K124
  % of Total STAT6 Ub: 0.1 ± 0.2%
STAT6; STAT6 site K124 diGly peptide
  Intensity: 0.22 ± 0.39 E + 06
STAT6; STAT6 site K277
  % of Total STAT6 Ub: 0.4 ± 0.4%
STAT6; STAT6 site K277 diGly peptide
  Intensity: 0.64 ± 0.57 E + 06
STAT6; STAT6 site K284
  % of Total STAT6 Ub: 0.3 ± 0.1%
STAT6; STAT6 site K284 diGly peptide
  Intensity: 0.41 ± 0.13 E + 06
STAT6; STAT6 site K288
  % of Total STAT6 Ub: 0.8 ± 0.5%
STAT6; STAT6 site K288 diGly peptide
  Intensity: 1.23 ± 0.69 E + 06
STAT6; STAT6 site K307
  % of Total STAT6 Ub: 3.7 ± 0.9%
STAT6; STAT6 site K307 diGly peptide
  Intensity: 5.78 ± 0.91 E + 06
STAT6; STAT6 site K319
  % of Total STAT6 Ub: 5.1 ± 3.1%
STAT6; STAT6 site K319 diGly peptide
  Intensity: 8.12 ± 5.02 E + 06
STAT6; STAT6 site K374
  % of Total STAT6 Ub: 1.7 ± 0.7%
STAT6; STAT6 site K374 diGly peptide
  Intensity: 2.73 ± 1.21 E + 06
STAT6; STAT6 site K504
  % of Total STAT6 Ub: 33.7 ± 6.4%
STAT6; STAT6 site K504 diGly peptide
  Intensity: 54.1 ± 13.1 E + 06
STAT6; STAT6 site K595
  % of Total STAT6 Ub: 6.6 ± 0.2%
STAT6; STAT6 site K595 diGly peptide
  Intensity: 10.6 ± 1.1 E + 06
STAT6; STAT6 site K614
  % of Total STAT6 Ub: 0.9 ± 0.2%
STAT6; STAT6 site K614 diGly peptide
  Intensity: 1.44 ± 0.26 E + 06
STAT6; STAT6 site K630
  % of Total STAT6 Ub: 32.7 ± 2.2%
STAT6; STAT6 site K630 diGly peptide
  Intensity: 52.0 ± 3.0 E + 06
STAT6; STAT6 site K636
  % of Total STAT6 Ub: 3.3 ± 1.2%
STAT6; STAT6 site K636 diGly peptide
  Intensity: 5.33 ± 2.06 E + 06
STAT6; STAT6 site K647
  % of Total STAT6 Ub: 7.9 ± 1.7%
STAT6; STAT6 site K647 diGly peptide
  Intensity: 12.4 ± 1.7 E + 06
[1]; 30 minutes at room temperature
  IC50: < 100 nM

## COc1cc(N2CCN(CCc3ccc(C4CCC(=O)NC4=O)cc3F)CC2)ccc1-c1cc(C2=CCCN(C(=O)CCn3ccnn3)C2)c(F)c2[nH]c(C(=O)N(C)C)cc12 (stereo not shown)
STAT6; STAT6 diGly site K94
  % of Total: 1.5 ± 0.3%
  Intensity (E + 06): 7.40 ± 2.12 E + 06
STAT6; STAT6 diGly site K107
  % of Total: 0.5 ± 0.2%
  Intensity (E + 06): 2.67 ± 0.71 E + 06
STAT6; STAT6 diGly site K108
  % of Total: 2.8 ± 0.8%
  Intensity (E + 06): 13.6 ± 4.6 E + 06
STAT6; STAT6 diGly site K124
  % of Total: 0.6 ± 0.2%
  Intensity (E + 06): 2.94 ± 0.62 E + 06
STAT6; STAT6 diGly site K277
  % of Total: 0.2 ± 0.4%
  Intensity (E + 06): 1.27 ± 2.20 E + 06
STAT6; STAT6 diGly site K284
  % of Total: 0.5 ± 0.2%
  Intensity (E + 06): 2.15 ± 0.70 E + 06
STAT6; STAT6 diGly site K288
  % of Total: 1.9 ± 0.4%
  Intensity (E + 06): 9.40 ± 1.51 E + 06
STAT6; STAT6 diGly site K307
  % of Total: 2.1 ± 0.3%
  Intensity (E + 06): 10.1 ± 1.1 E + 06
STAT6; STAT6 diGly site K319
  % of Total: 5.7 ± 2.5%
  Intensity (E + 06): 27.4 ± 10.2 E + 06
STAT6; STAT6 diGly site K504
  % of Total: 41.1 ± 12.6%
  Intensity (E + 06): 206 ± 90 E + 06
STAT6; STAT6 diGly site K595
  % of Total: 4.8 ± 0.4%
  Intensity (E + 06): 23.1 ± 1.7 E + 06
STAT6; STAT6 diGly site K614
  % of Total: 1.1 ± 0.5%
  Intensity (E + 06): 4.94 ± 1.87 E + 06
STAT6; STAT6 diGly site K618
  % of Total: 0.3 ± 0.1%
  Intensity (E + 06): 1.60 ± 0.55 E + 06
STAT6; STAT6 diGly site K630
  % of Total: 28.7 ± 7.6%
  Intensity (E + 06): 138 ± 28 E + 06
STAT6; STAT6 diGly site K636
  % of Total: 1.2 ± 1.1%
  Intensity (E + 06): 5.53 ± 4.68 E + 06
STAT6; STAT6 diGly site K647
  % of Total: 7.1 ± 1.7%
  Intensity (E + 06): 34.2 ± 6.0 E + 06
[1]; 30 minutes at room temperature
  IC50: < 100 nM

## COc1cc(N2CCN(c3ccc(-c4cc(C5=CCCN(C(=O)CCn6cccn6)C5)c(F)c5[nH]c(C(=O)N(C)C)cc45)cc3)CC2)c(F)cc1NC1CCC(=O)NC1=O (stereo not shown)
STAT6
  STAT6 ubiquitination profile: distinct from profiles reported in the literature in untreated cancer cell lines
STAT6; STAT6 diGly site K94
  % of Total: 2.7 ± 0.5%
  Intensity (E + 06): 6.33 ± 0.74 E + 06
STAT6; STAT6 diGly site K107
  % of Total: 1.1 ± 0.4%
  Intensity (E + 06): 2.54 ± 1.19 E + 06
STAT6; STAT6 diGly site K108
  % of Total: 1.2 ± 0.6%
  Intensity (E + 06): 2.88 ± 1.25 E + 06
STAT6; STAT6 diGly site K124
  % of Total: 2.0 ± 0.2%
  Intensity (E + 06): 4.91 ± 1.17 E + 06
STAT6; STAT6 diGly site K277
  % of Total: 0.0 ± 0.0%
  Intensity (E + 06): 0 E + 06
STAT6; STAT6 diGly site K284
  % of Total: 0.8 ± 0.1%
  Intensity (E + 06): 2.01 ± 0.46 E + 06
STAT6; STAT6 diGly site K288
  % of Total: 3.5 ± 0.7%
  Intensity (E + 06): 8.46 ± 2.96 E + 06
STAT6; STAT6 diGly site K307
  % of Total: 3.4 ± 0.8%
  Intensity (E + 06): 7.84 ± 0.84 E + 06
STAT6; STAT6 diGly site K319
  % of Total: 9.8 ± 1.6%
  Intensity (E + 06): 23.7 ± 7.7 E + 06
STAT6; STAT6 diGly site K504
  % of Total: 38.0 ± 2.6%
  Intensity (E + 06): 89.9 ± 10.1 E + 06
STAT6; STAT6 diGly site K595
  % of Total: 5.5 ± 1.0%
  Intensity (E + 06): 12.9 ± 2.6 E + 06
STAT6; STAT6 diGly site K614
  % of Total: 2.4 ± 0.8%
  Intensity (E + 06): 5.72 ± 2.49 E + 06
STAT6; STAT6 diGly site K618
  % of Total: 1.6 ± 0.1%
  Intensity (E + 06): 3.86 ± 0.49 E + 06
STAT6; STAT6 diGly site K630
  % of Total: 15.9 ± 0.5%
  Intensity (E + 06): 37.8 ± 6.7 E + 06
STAT6; STAT6 diGly site K647
  % of Total: 12.1 ± 3.2%
  Intensity (E + 06): 29.3 ± 10.2 E + 06
[1]; HTRF binding
  IC50: < 100 nM
